Experimental data: ChEMBL document CHEMBL5727031, “Metabotropic glutamate receptor negative allosteric modulators (NAMS) and uses thereof” (2018)
pEC50: −log10 of the molar value.

What was measured:
[1] = (§1) In Vitro GIRK Thallium Flux Assay (2.5 minutes): Human Embryonic Kidney (HEK-293) cell lines co-expressing rat mGlu receptors 2, 3, 4, 6, 7 or 8 and G protein-coupled inwardly-rectifying potassium (GIRK) channels_ENREF_54 were grown in Growth Media containing 45% DMEM, 45% F-12, 10% FBS, 20 mM HEPES, 2 mM L-glutamine, antibiotic/antimycotic, non-essential amino acids, 700 μg/ml G418, and 0.6 μg/ml puromycin at 37° C. in the presence of 5% CO2. All cell culture reagents were purchased from Invitrogen Corp. (Carlsbad, Calif.) unless otherwise noted. Compound activity at the group II (mGlu2 and mGlu3) mGlus was assessed using thallium flux through GIRK channels. Briefly, cells were plated into 384-well, black-walled, clear-bottomed poly-D-lysine-coated plates at a density of 15,000 cells/20 μL/well in DMEM containing 10% dialyzed FBS, 20 mM HEPES, and 100 units/mL penicillin/streptomycin (assay media). Plated cells were incubated overnight at 37° C. in the presence of 5% CO2. The following day, the medium was exchanged from the cells to assay buffer [Hanks' balanced salt solution (Invitrogen) containing 20 mM HEPES, pH 7.3] using an ELX405 microplate washer (BioTek), leaving 20 μL/well, followed by the addition of 20 μL/well FluoZin2-AM (330 nM final concentration) indicator dye (Invitrogen; prepared as a stock in DMSO and mixed in a 1:1 ratio with Pluronic acid F-127) in assay buffer. […]; details: HEK293, 2.5 min
[2] = as §1, with “(60” for “(2.5”; details: HEK293, 1 h
[3] = as §1; details: HEK293, 2.5 min; remark: listed apart in the source

Q: With Cc1cc2c(cc1C(F)(F)F)NC(=O)CC(c1cccc(Oc3ncccn3)c1)=N2 as the compound, how does the pEC50 [1] read?
A: Its pEC50 is 6.43.

Q: What about the pEC50 [2] of the same compound?
A: Its pEC50 is 6.82.

Q: What about the pEC50 [3] of the same compound?
A: The pEC50 was 6.38.
